This assay has as its target Endothelin receptor type B (Homo sapiens) (UniProt P24530).

By Ki is commonly meant a dissociation constant, usually derived from enzyme kinetics or from competition with a known ligand. Read a low Ki as higher affinity. Take `CCCCN(CCCC)C(=O)CN1C[C@@H](c2cc(OC)c3c(c2)OCO3)[C@H](C(=O)O)[C@H]1CC(C)(C)CCC` [A-545]: the inhibitory constant (Ki) is 13 µM (not active).

The record behind these values is ChEMBL document CHEMBL4507258, “Data for DCP probe ABT-546” (2021).
